## Binding of CDR-mutated scFvs to a peptide of the spike HR2 region

The measurements come from Engelhart et al. 2022 (doi:10.1038/s41597-022-01779-4) through the FLAb antibody collection.

The target is the same throughout: PDVDLGDISGINAS, from the HR2 region of SARS-CoV-2 spike.

Parent scFv Ab-14: VH joined to VL by a 15-residue (Gly4Ser)3 linker. Changes lie in the heavy chain CDRs alone.
VH: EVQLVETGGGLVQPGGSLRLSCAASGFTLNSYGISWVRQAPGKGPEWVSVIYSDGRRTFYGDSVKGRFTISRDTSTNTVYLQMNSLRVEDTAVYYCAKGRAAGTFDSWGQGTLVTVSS
VL: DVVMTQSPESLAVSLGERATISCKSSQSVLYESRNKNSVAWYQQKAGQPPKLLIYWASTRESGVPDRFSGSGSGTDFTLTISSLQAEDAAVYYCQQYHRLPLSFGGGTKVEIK

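The starting antibody came from a phage panning campaign against this peptide. Variants in AAYL49 differ from the parent at up to three CDR positions; double and triple changes were sampled at random. Affinity was read by AlphaSeq, a pooled yeast mating assay with surface-displayed partners. The frequency of each diploid, read from paired DNA barcodes, reflects how well the two displayed proteins bind. Read counts were normalised to the haploid input and turned into Kd by a linear fit to BCL2-family pairs of known affinity, for each replicate. The assay was run in three technical replicates.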

Each variant is given by its three heavy chain CDRs, as the data file delimits them; those of the parent are GFTLNSYGIS, VIYSDGRRTFYGDSVK, GRAAGTFDS.
Affinities are written as log10 Kd with Kd in nM; a lower number is a better binder.
Averages over replicates are reported, and they cover detected replicates only.
An entry "nd" has no value in the source: the pair was not observed among the diploids in that replicate. This suggests poor binding but is not conclusive.
In this assay the parent's reference entry averaged 0.65; its copy inside this library read 4.11 (one replicate of three).

CDR-H1,CDR-H2,CDR-H3,"replicates, log10 nM",mean log10 Kd (nM),control signals
GFTLNSYGIS,VIYSGGRRWFYGDSVK,GCAAGTFDS,nd / nd / nd,nd,1 of 9 (2.88)
GFTLNLYGIS,VIYSDGDRTFYGKSVK,GRAAGTFDS,nd / 3.77 / 3.02,3.40,2 of 9 (3.51)
GFTLNSYGIS,VWYSVGRRTFYGDSVK,GRAAGAFDS,3.66 / nd / nd,3.66,2 of 9 (4.17)
GFTLNSYGIS,VIYKDGRRTFYGDSVK,GRAAGTFDP,nd / 4.39 / 4.03,4.21,4 of 9 (4.06)
GFTLNSPGIS,VIYSDGRRTPYGDSVF,GRAAGTFDS,3.72 / nd / nd,3.72,1 of 9 (4.14)
GFTLNSYGIS,VIYSDGRRFFYGKSVK,GRAAGTFMS,nd / nd / nd,nd,3 of 9 (3.79)
EFTMNSYGIS,VIYSDGRRTFYGDSVK,GRAAGTFDS,1.27 / 1.33 / 1.37,1.33,1 of 9 (2.88)
GFTLNSYGIS,VISSDGRRTFYGDSVK,GAAAGQFDS,4.29 / 3.30 / 2.71,3.43,1 of 9 (3.01)
GFTLNSYGLS,VIYSDGRRTFYGDRVK,GRAAGTFDA,nd / 4.39 / nd,4.39,0 of 9
GFTLNSYGIS,VIYSEGRRTFYGDSVK,WRAAGTFDS,nd / nd / nd,nd,0 of 9
GFTLNSYGIM,VIYSDGRRTFYGDSVK,LRAAGWFDS,5.65 / nd / nd,5.65,0 of 9
EFTLNSYGIS,VIYSDGRRTFYGDSVK,GYAAGTFDS,2.16 / 1.58 / nd,1.87,0 of 9
GFTLNSYGIS,VIYSDGRRTFYVDSVV,GRAAGTFDS,1.84 / 1.89 / 2.14,1.96,3 of 9 (3.56)
GFTLNSYGIS,VIYSDGRRTIYGDSSQ,GRAAGTFDS,nd / nd / nd,nd,1 of 9 (4.28)
GFTLGSYGIS,VIKSDGRRTFYGDSVK,GRAVGTFDS,3.84 / 2.54 / nd,3.19,0 of 9
GFTLNSYGIS,VIYSRGRMTFYGDSVK,GRAAGTFDR,nd / 3.78 / nd,3.78,1 of 9 (3.74)
GFTLNSYGIS,VIYSDGRRTFYGDCVK,KRAAGTFDR,nd / nd / 5.09,5.09,0 of 9
GFTLNSYGIS,VIYSDGRRTFYGDSVK,GKAAACFDS,nd / nd / nd,nd,1 of 9 (3.93)
GFTLNSYNSS,VIYSDGRRTFYGDSVK,GRAKGTFDS,nd / nd / 4.97,4.97,2 of 9 (4.33)
RFTLNSYGMS,VIYSDGRRTFYGDSVK,GRAAGHFDS,nd / nd / nd,nd,1 of 9 (2.73)
GFTLNSYGIS,VTYSDGRRYKYGDSVK,GRAAGTFDS,nd / nd / nd,nd,1 of 9 (3.22)
GFVLNSHGIS,VIYSDGRRTFYGDSVK,CRAAGTFDS,nd / nd / nd,nd,0 of 9
GFELNSYGIS,VIYSDGRRTFYGDRCK,GRAAGTFDS,nd / nd / nd,nd,0 of 9
GMTLNSYGIS,VIYSDGRITFYGDSVY,GRAAGTFDS,nd / nd / nd,nd,0 of 9
AFTLNSYGIS,VIYSDGRRTFAPDSVK,GRAAGTFDS,nd / 2.41 / nd,2.41,0 of 9
GETLNSYGIS,VIESDGRRTFYGDSVK,GRACGTFDS,nd / nd / nd,nd,3 of 9 (4.94)
GFTLNSYGIS,VIYYDGRLTFYGDSQK,GRAAGTFDS,nd / nd / 3.46,3.46,2 of 9 (3.73)
GFTLNSYHIS,VIRSDGRRTFYGDSVK,GRAAGTFDI,4.19 / nd / nd,4.19,1 of 9 (3.25)
GFTLNSYGIS,VIWSDGERTFYGDSAK,GRAAGTFDS,4.91 / nd / nd,4.91,2 of 9 (3.38)
GFTLNSYGIS,VIYSDGRRTFYGDSVK,GRAASTCDS,1.29 / 1.16 / 0.88,1.11,0 of 9
GFTLNSYGIS,VNYSDGRRTFYGDSFK,GRAAGTIDS,nd / 2.85 / nd,2.85,0 of 9
GFTLNSYQIS,VIYSDIRDTFYGDSVK,GRAAGTFDS,nd / nd / nd,nd,1 of 9 (3.27)
GFTLNSYGIW,VIYSDGRRTFYGDSVK,GRAAGTFDS,nd / nd / nd,nd,1 of 9 (4.43)

The closing 4 entries, repeated:

| CDR-H1 | CDR-H2 | CDR-H3 | replicates, log10 nM | mean log10 Kd (nM) | control signals |
|---|---|---|---|---|---|
| GFTLNSYGIS | VIYSDGRRTFYGDSVK | GRAASTCDS | 1.29 / 1.16 / 0.88 | 1.11 | 0 of 9 |
| GFTLNSYGIS | VNYSDGRRTFYGDSFK | GRAAGTIDS | nd / 2.85 / nd | 2.85 | 0 of 9 |
| GFTLNSYQIS | VIYSDIRDTFYGDSVK | GRAAGTFDS | nd / nd / nd | nd | 1 of 9 (3.27) |
| GFTLNSYGIW | VIYSDGRRTFYGDSVK | GRAAGTFDS | nd / nd / nd | nd | 1 of 9 (4.43) |

Empty control strains, which show no peptide, gave a signal in 15% of pairings with library AAYL49; the median was 4.06 and 95% of these signals were weaker than 2.83. No background was subtracted. Also given: how often the same scFv was detected with the empty control strains, with their mean in brackets.